Ab-14 light chain CDR variants: yeast mating affinities

Binding partner: SARS-CoV-2 spike HR2 peptide, sequence PDVDLGDISGINAS.

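The parent was found by panning a naive human phage display library on the peptide. In library AAYL50, one, two or three CDR residues were substituted; doubles and triples were drawn at random. In AlphaSeq, yeast of one mating type display the scFv and yeast of the other type display the target. Pairs that bind mate more often; barcode pairs of the diploids are counted by sequencing. The ratio of observed to expected reads was calibrated, replicate by replicate, on BCL2-family standards whose Kd was known from biolayer interferometry. Each pool was mated in three replicate cultures.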

Each scFv is VH, a (GGGGS)3 linker, VL, as in the parent Ab-14, and differs from it in the CDRs of the light chain only.
VH: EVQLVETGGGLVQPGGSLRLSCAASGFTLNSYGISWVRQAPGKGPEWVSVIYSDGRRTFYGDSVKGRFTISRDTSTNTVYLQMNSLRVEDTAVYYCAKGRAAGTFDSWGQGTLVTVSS
VL: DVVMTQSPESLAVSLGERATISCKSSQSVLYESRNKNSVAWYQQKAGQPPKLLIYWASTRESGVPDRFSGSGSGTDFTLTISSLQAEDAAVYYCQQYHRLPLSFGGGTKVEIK

Each variant is given by its three light chain CDRs, as the data file delimits them; those of the parent are KSSQSVLYESRNKNSVA, WASTRES, QQYHRLPLS. Values are apparent Kd, the geometric mean of the replicates that gave a signal; lower means stronger binding. "nd" means that the variant was in the library but no mating with the target was seen in any replicate; the authors take this as a sign of poor binding, and no number exists. For reference, the parent read 4.4 nM as the reference entry and 48 nM as a member of this library. Nonspecific signal, from three strains lacking the peptide, appeared in 18% of pairings of library AAYL50, centred on 15 µM (5% of these signals below 970 nM); values are not corrected for it. Also given: how often the same scFv was detected with the empty control strains.

CDR-L1 | CDR-L2 | CDR-L3 | Kd (apparent) | seen in | control signals
YSSESVLYESRNKNSVA | WASTREF | QQYHRLPLS | 37 nM | 3/3 | 2/9
LSSTSVLYESRNKNSVA | WAVTRES | QQYHRLPLS | 22 µM | 3/3 | 2/9
KSSPSVLYETRNKNSVA | WASTRES | QQYHRLPLS | 910 µM | 1/3 | 1/9
KSSQSWLYESRNKNSVA | WASTRES | AQYHRLPLV | 5.6 µM | 3/3 | 1/9
KTSQSPLYESRNKNSVA | WASTRES | QQYHELPLS | 8.1 nM | 3/3 | 1/9
KSSQSVLYESRNKNSVA | WASTAES | QQEHRKPLS | nd | 0/3 | 0/9
KSSQSVLYESRNKNEQA | WASTRES | QQYHSLPLS | 3.3 µM | 2/3 | 2/9
KSSQSVLYCSRNHNSVA | WASTRES | QQNHRLPLS | 540 nM | 3/3 | 3/9
KSSQSVLYESRNKNSVE | WASFRES | QQYHRLPLS | nd | 0/3 | 4/9
KSSQSVLYESRNKNGVA | CASTRES | RQYHRLPLS | 57 µM | 1/3 | 3/9
KSSQSVLYESRNKNSVA | WAETRES | QQYLRQPLS | nd | 0/3 | 0/9
KSSQSYLYESRNKNSVA | WASTRES | QQYHSLPES | nd | 0/3 | 0/9
KSSQSMLYESRNKASVA | WASTRES | GQYHRLPLS | 27 nM | 3/3 | 2/9
KSSKLVLYESRNKNSVA | WASTREK | QQYHRLPLS | 190 nM | 3/3 | 1/9
KSSSSVLYESRNKNSPA | WAITRES | QQYHRLPLS | nd | 0/3 | 1/9
KSSDSVLYESRNKNSVA | WASTRWS | QQYHRLPYS | 370 nM | 3/3 | 5/9
MSSQSVGYESRNKNSVA | WASTRAS | QQYHRLPLS | 3.4 nM | 3/3 | 2/9
WSSQSHLYESDNKNSVA | WASTRES | QQYHRLPLS | 110 nM | 3/3 | 3/9
KSSQSVLYESRNKNSVA | WASTVES | QQYGRLPLS | 170 nM | 3/3 | 1/9
KSSQSVLYESRNKNMVA | WASTREF | QQYHRDPLS | 950 nM | 1/3 | 0/9
KSSQSVLYESRNKNSGI | WASTRES | QQYHRLPLL | nd | 0/3 | 0/9
KSSQSVRYESRNKNSVS | WASTRES | QQYHRLPLS | nd | 0/3 | 0/9
KSSQSVLWESRNKNSVA | WAGTRES | QQYPRLPLS | 68 µM | 3/3 | 4/9
KSEQSVTYESRNKNSVA | WASTRES | QQNHRLPLS | nd | 0/3 | 0/9
KSSQSTLYESRNKNSVS | WASTRES | QQYHRLPLS | 5.0 nM | 3/3 | 0/9
KSSQSVLYEQRNKNSVA | WASQRES | QAYHRLPLS | 1.1 µM | 2/3 | 0/9
KSSQHVLEESRNKNSVA | WASVRES | QQYHRLPLS | 7.1 nM | 3/3 | 2/9
KSSQSVLYESRNKNSVA | WASTIES | QQYHRLPDS | 11 µM | 1/3 | 3/9
KSSQSVLYESRNKNSVA | WASTRES | WQNHRLPSS | nd | 0/3 | 2/9
KSSQSVLYESRNKNSVK | WTSTRES | QQYHCLPLS | 14 µM | 1/3 | 1/9
KSSQSVLYESRNINSVA | WASTRES | QQYHRSPLM | nd | 0/3 | 0/9
KSSQSVLYESRNKNSVA | SAFTRPS | QQYHRLPLS | 2.0 nM | 3/3 | 0/9
NSSQSVLYESRNKNSVA | WKSTRES | QQYHLLPLS | 87 nM | 3/3 | 0/9
KSDQLVLYESRNKNSVA | WASTRES | QQYHRKPLS | nd | 0/3 | 1/9
KSSQSVLYESRAKNSVA | WASTRES | QQYHRLNLS | 32 nM | 3/3 | 3/9
KSSQSVLYESKNTNMVA | WASTRES | QQYHRLPLS | 31 nM | 3/3 | 2/9
KSSNSVLYERRNKNSVA | WASTRES | QQYHRLLLS | 370 nM | 3/3 | 9/9
KSSSSVLYESRNKNSVK | WASTRES | QQYHRLPLS | 4.0 µM | 1/3 | 3/9
KSSQSVLYESRNKCSPA | WANTRES | QQYHRLPLS | 17 µM | 2/3 | 0/9
KSSQSVLYESRNKNSVA | MASTRHS | QQYHRTPLS | nd | 0/3 | 0/9
KSSQHVLYESRNKNSVA | WASTRES | HQYHRLQLS | nd | 0/3 | 0/9
KSSTSVLYEYRNKNIVA | WASTRES | QQYHRLPLS | nd | 0/3 | 0/9
KSSQSVLYESRNKNSVA | WASTTSS | QFYHRLPLS | 7.4 µM | 3/3 | 3/9
KSSQSVDYESRGKKSVA | WASTRES | QQYHRLPLS | 38 nM | 3/3 | 2/9
KSSQSKLYESRKKNSVA | HASTRES | QQYHRLPLS | nd | 0/3 | 0/9
KSSQSVLYESRNKNSVS | WASTREN | QQYDRLPLS | nd | 0/3 | 2/9
KSSQCVLYESRNKNSVA | WLSTRES | QQYHRKPLS | nd | 0/3 | 1/9
KISQSVLYESRRINSVA | WASTRES | QQYHRLPLS | 2.5 nM | 3/3 | 2/9
KVSQSVRVESRNKNSVA | WASTRES | QQYHRLPLS | 4.6 nM | 3/3 | 5/9
KTSQSVCYESRNKNSVA | WDSTRES | QQYHRLPLS | 410 µM | 1/3 | 3/9
KSSQWVLYESRRKNSVA | WMSTRES | QQYHRLPLS | nd | 0/3 | 0/9
KSSQSVLYESWNKNSVA | WAKTRES | QEYHRLPLS | 9.7 nM | 3/3 | 0/9
KSSQSVLYESHNKNSVA | RASTRGS | QQYHRLPLS | 36 nM | 3/3 | 0/9
KSTQSMLYESRNKNSVA | WASTRES | QQYHRLPLS | 29 nM | 3/3 | 6/9
KSSKSVLYESRNMPSVA | WASTRES | QQYHRLPLS | 20 nM | 3/3 | 3/9
KSSQSCLYEKRNKNSVA | WASTRES | QQYHRLPKS | 840 nM | 2/3 | 2/9
KSVQSELYESRNKNSVK | WASTRES | QQYHRLPLS | 10 µM | 2/3 | 1/9
KSSQSVLRESRNKNSNA | WASTRES | QQYHGLPLS | nd | 0/3 | 2/9
NSSQSVLYSSRNKNSVA | WESTRES | QQYHRLPLS | 1.8 µM | 1/3 | 1/9
ISSCSVLYESRNKNSVA | WASTREI | QQYHRLPLS | 190 nM | 3/3 | 2/9
KSSQSVLYESRNKNSVA | TATTRES | QQCHRLPLS | 16 nM | 3/3 | 6/9
KSNQSVLYESRNKNSVA | WASTRSS | QQYHRLTLS | 130 nM | 3/3 | 0/9
KSSQSVHYESRNKLSVA | WASTRES | QQYHRLPLS | 53 µM | 3/3 | 1/9
KSSQSVLGISRNKNSVA | WASTRES | QQYHRLPLI | 6.6 nM | 3/3 | 3/9

The closing 9 entries, repeated:

CDR-L1,CDR-L2,CDR-L3,Kd (apparent),seen in,control signals
KSSQSCLYEKRNKNSVA,WASTRES,QQYHRLPKS,840 nM,2/3,2/9
KSVQSELYESRNKNSVK,WASTRES,QQYHRLPLS,10 µM,2/3,1/9
KSSQSVLRESRNKNSNA,WASTRES,QQYHGLPLS,nd,0/3,2/9
NSSQSVLYSSRNKNSVA,WESTRES,QQYHRLPLS,1.8 µM,1/3,1/9
ISSCSVLYESRNKNSVA,WASTREI,QQYHRLPLS,190 nM,3/3,2/9
KSSQSVLYESRNKNSVA,TATTRES,QQCHRLPLS,16 nM,3/3,6/9
KSNQSVLYESRNKNSVA,WASTRSS,QQYHRLTLS,130 nM,3/3,0/9
KSSQSVHYESRNKLSVA,WASTRES,QQYHRLPLS,53 µM,3/3,1/9
KSSQSVLGISRNKNSVA,WASTRES,QQYHRLPLI,6.6 nM,3/3,3/9

Data: MIT Lincoln Laboratory AlphaSeq set, Engelhart et al. 2022, doi:10.1038/s41597-022-01779-4, as distributed in FLAb.